{
  "sequences": {"note": "Chains of the proteins cited; added tags and fusions are not shown. Residues count along the entry.", "UniProt P38764, 391-642": "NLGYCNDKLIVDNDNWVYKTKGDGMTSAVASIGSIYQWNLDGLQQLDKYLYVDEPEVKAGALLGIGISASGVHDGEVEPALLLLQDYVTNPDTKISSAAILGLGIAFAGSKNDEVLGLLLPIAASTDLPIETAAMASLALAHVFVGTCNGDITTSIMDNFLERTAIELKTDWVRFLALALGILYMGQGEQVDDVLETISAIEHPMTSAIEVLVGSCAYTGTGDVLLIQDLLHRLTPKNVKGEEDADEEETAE"},
  "source": "paper PMC8008175",
  "origin": "cited, not measured here",
  "key": {"K11-linked Ub2": {"molecular_target": "K11-linked Ub2 (UniProt P0CG48)"}, "K48-linked Ub2": {"molecular_target": "K48-linked Ub2 (UniProt P0CG48)"}},
  "data": [
    {"substance": "Rpn1 391-642 (from UniProt P38764)", "values": [
      {"measurement": "Kd", "setting": "K11-linked Ub2", "value": 28, "unit": "µM"},
      {"measurement": "Kd", "setting": "K48-linked Ub2", "value": 123, "unit": "µM"}
    ]}
  ]
}
